Assay results from patent US9833451B2 (priority 2007, dated 2017).

Key:
[1] = system: migraine pain in subjects; assay: Relief from migraine pain after inhaled DHE (FIG. 1); type: in vivo, human; settings: 0.88 mg and 0.44 mg DHE inhaled
[2] = cited from earlier work

Q: With `CN1C[C@H](C(=O)N[C@]2(C)O[C@@]3(O)[C@@H]4CCCN4C(=O)[C@H](Cc4ccccc4)N3C2=O)C[C@@H]2c3cccc4[nH]cc(c34)C[C@H]21` [DHE, dihydroergotamine mesylate] as the compound, how does the “time to therapeutic efficacy” value [1] read?
A: ≤ 30 min

Q: And the “onset of therapeutic efficacy” value ([2]; intranasal)?
A: 45 min

Q: And the “onset of therapeutic efficacy” value ([2]; oral or sublingual delivery)?
A: 120 min

Where a name gives a salt, the structure may show the parent alone. Read-outs that look alike come from different tables or passages of the source.
